# Data taken from US20250205200A1, “5-METHOXY-N,N-[…][…] THE TREATMENT OF […]” (GH RESEARCH IRELAND LIMITED, priority 2022, published 2025).
# Amino acid sequences for entries named in this document (tags omitted).
# UniProt P28223, whole entry: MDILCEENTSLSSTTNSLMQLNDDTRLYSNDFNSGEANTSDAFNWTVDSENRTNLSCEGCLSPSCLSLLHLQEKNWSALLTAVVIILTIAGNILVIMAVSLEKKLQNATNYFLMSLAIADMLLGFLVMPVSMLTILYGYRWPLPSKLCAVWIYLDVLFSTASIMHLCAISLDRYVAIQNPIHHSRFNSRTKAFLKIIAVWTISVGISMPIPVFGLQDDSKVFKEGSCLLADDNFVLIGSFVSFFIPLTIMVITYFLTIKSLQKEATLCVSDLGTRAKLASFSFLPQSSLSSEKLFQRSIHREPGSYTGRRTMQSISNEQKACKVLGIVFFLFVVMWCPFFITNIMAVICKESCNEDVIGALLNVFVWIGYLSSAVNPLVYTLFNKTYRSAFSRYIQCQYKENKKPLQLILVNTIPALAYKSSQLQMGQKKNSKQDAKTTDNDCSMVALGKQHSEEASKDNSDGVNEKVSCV
# Read-outs that look alike come from different tables or passages of the source.
# Columns and labels:
# 5-HT2A receptors = molecular target: T1, 5-HT2A receptors (Homo sapiens, UniProt P28223); assay: Radioligand binding ([3H]MDL-100,907) to 5-HT2A receptors in post-mortem human frontal cortex membranes; settings: frontal cortical membranes, read-out: Dissociation constant (Kd) for 5-HT2A receptors
# T1 construct: 5-HT1A and 5-HT2A receptors in post-mortem human brain tissue from the hippocampus and frontal cortex, respectively; tissue Edinburgh Sudden Death Brain Bank; host or cells: post-mortem human frontal cortex membranes
# human hepatocytes [1] = assay: Metabolite identification of 5-MeO-DMT in human hepatocytes; assay type: in vitro ADME; settings: 5-MeO-DMT free base 10 μM incubated up to 120 minutes
# human hepatocytes [2] = assay: Metabolic stability in Hμrel human hepatocyte co-culture assay; assay type: in vitro ADME
substance,measurement,setting,value
"[^3H]MDL-100,907",Kd,5-HT2A receptors; donor 1 of 3,110 pM
same,Kd,5-HT2A receptors; donor 2 of 3,80 pM
same,Kd,5-HT2A receptors; donor 3 of 3,80 pM
5-Methoxyindole acetic acid [5-Methoxyindole acetic acid (5-MIAA)],Relative proportion of compounds identified,human hepatocytes [1],61%
same,Relative LC/MS peak area remaining,"human hepatocytes [2]; 1 μM Hepatocytes, 1 h",98%
same,Relative LC/MS peak area remaining,"human hepatocytes [2]; 1 μM Hepatocytes, 2 h",100%
same,Relative LC/MS peak area remaining,"human hepatocytes [2]; 1 μM Hepatocytes, 4 h",99%
same,Relative LC/MS peak area remaining,"human hepatocytes [2]; 1 μM Hepatocytes, 8 h",95%
same,Relative LC/MS peak area remaining,"human hepatocytes [2]; 1 μM Hepatocytes, 24 h",99%
same,Relative LC/MS peak area remaining,"human hepatocytes [2]; 1 μM Hepatocytes, 48 h",88%
same,Relative LC/MS peak area remaining,"human hepatocytes [2]; 1 μM Hepatocytes, 72 h",82%
same,Relative LC/MS peak area remaining,"human hepatocytes [2]; 1 μM Stromal cells, 4 h",103%
same,Relative LC/MS peak area remaining,"human hepatocytes [2]; 1 μM Stromal cells, 8 h",107%
same,Relative LC/MS peak area remaining,"human hepatocytes [2]; 1 μM Stromal cells, 24 h",108%
same,Relative LC/MS peak area remaining,"human hepatocytes [2]; 1 μM Stromal cells, 48 h",111%
same,Relative LC/MS peak area remaining,"human hepatocytes [2]; 1 μM Stromal cells, 72 h",135%
same,Relative LC/MS peak area remaining,"human hepatocytes [2]; 10 μM Hepatocytes, 1 h",97%
same,Relative LC/MS peak area remaining,"human hepatocytes [2]; 10 μM Hepatocytes, 2 h",100%
same,Relative LC/MS peak area remaining,"human hepatocytes [2]; 10 μM Hepatocytes, 4 h",103%
same,Relative LC/MS peak area remaining,"human hepatocytes [2]; 10 μM Hepatocytes, 8 h",96%
same,Relative LC/MS peak area remaining,"human hepatocytes [2]; 10 μM Hepatocytes, 24 h",96%
same,Relative LC/MS peak area remaining,"human hepatocytes [2]; 10 μM Hepatocytes, 48 h",86%
same,Relative LC/MS peak area remaining,"human hepatocytes [2]; 10 μM Hepatocytes, 72 h",75%
same,Relative LC/MS peak area remaining,"human hepatocytes [2]; 10 μM Stromal cells, 4 h",101%
same,Relative LC/MS peak area remaining,"human hepatocytes [2]; 10 μM Stromal cells, 8 h",106%
same,Relative LC/MS peak area remaining,"human hepatocytes [2]; 10 μM Stromal cells, 24 h",97%
same,Relative LC/MS peak area remaining,"human hepatocytes [2]; 10 μM Stromal cells, 48 h",103%
same,Relative LC/MS peak area remaining,"human hepatocytes [2]; 10 μM Stromal cells, 72 h",115%
